Molecular target: human FSH receptor (Homo sapiens, UniProt P23945)
Assay: hFSHR CHO cAMP assay (rhFSHR-cLUC cells, FSH-stimulated cAMP, radioimmunoassay)
Details: read-out: EC50 hFSHR CHO cAMP; inhibition of cAMP produced by EC70 dose of FSH (4.85 nM); maximum concentration 50 μM
From the text: Minimum Essential Medium-Alpha (MEM-alpha), fetal bovine serum (FBS), penicillin, streptomycin, geneticin, trypsin-EDTA, Hanks' Balanced Salt Solution (no Calcium chloride, Magnesium chloride, Magnesium sulfate, or phenol red; Ca-Mg free HBSS) were purchased from Gibco BRL (Gaithersburg, Md.). The cells used for the FSH bioassay (rhFSHR-cLUC) were Chinese Hamster Ovary cells (K-1; ATCC) stably transformed with human FSH receptor (pSVK-FSHr) and a cAMP luciferase reporter gene (responsive CGα-180LUC). Follicle Stimulating Hormone (Metrodin; Fertinex) was purchased from Serono, Ltd. (Norwell, Mass.).
The rhFSHR-cLUC cell cultures were maintained in MEM-Alpha supplemented with 10% heat-inactivated FBS (HIFBS), 100 U/ml penicillin, 100 μg/mL streptomycin, and included 0.1 g/L geneticin for stable cell selection.
Forty-eight hours after the cells were plated in sterile 96-well culture plates (Corning, Corning, N.Y.) the spent media was removed and 50 μl assay media (modified growth media with 2% HIFBS) containing 2 mM IBMX (3-isobutyl-1-methyl-xanthine) was added to the cells. Compounds (25 μl) in the appropriate concentration were added followed 5 minutes later by an EC70 dose of FSH (25 μl; 160 ng/ml; 4.85 nM). After 10 minutes @ 22.5° C. (room temperature) the reaction was terminated by addition of 25 μL 0.5 N hydrochloric acid to each well. The amount of cAMP produced was measured by radioimmunoassay in a FlashPlate (DuPont, Boston, Mass.). To each flash plate 60 μL flash plate buffer was added followed by 40 μL acidified cell sample or cAMP standard, followed with the addition of 100 μl ^125l-cAMP trace. The FlashPlates were sealed, incubated overnight @ room temperature, and counted in a Packard TopCount (Packard Instrument Co., Meriden, Conn.). The cAMP radioimmunoassay results were calculated using DPM conversion and log-logit transformation of % binding (Excel program).
Test compounds were solubilized in 30% dimethyl sulfoxide (DMSO) at a concentration of 10 mM before diluting to appropriate concentrations in assay medium. The final DMSO concentration in the treated cells and in the control cells was 0.75%.
For individual experiments, a set of samples were tested including a vehicle control (assay buffer), a reference compound (hFSH) at a range of concentrations designed to elicit a minimal to maximal response, and several concentrations of test compounds together with an EC70 concentration of standard (hFSH challenge). Each compound was performed in duplicates for the primary evaluation and quadruplicates for the dose-ranging experiments. The cAMP radioimmunoassay raw data (pmol) were calculated to provide average pmol cAMP produced/ml and the percent inhibition was calculated as shown below.
% Inh=[1−(Avg.pmoltest compound+standard)/(Avg.pmolstandard)]×100
EC50 values were calculated from an analysis of the concentration-inhibition data using a linear analysis of the data transformed to a log-logit format.

Chains of the proteins cited; added tags and fusions are not shown. Residues count along the entry.
UniProt P23945, 18-695 limits assumed: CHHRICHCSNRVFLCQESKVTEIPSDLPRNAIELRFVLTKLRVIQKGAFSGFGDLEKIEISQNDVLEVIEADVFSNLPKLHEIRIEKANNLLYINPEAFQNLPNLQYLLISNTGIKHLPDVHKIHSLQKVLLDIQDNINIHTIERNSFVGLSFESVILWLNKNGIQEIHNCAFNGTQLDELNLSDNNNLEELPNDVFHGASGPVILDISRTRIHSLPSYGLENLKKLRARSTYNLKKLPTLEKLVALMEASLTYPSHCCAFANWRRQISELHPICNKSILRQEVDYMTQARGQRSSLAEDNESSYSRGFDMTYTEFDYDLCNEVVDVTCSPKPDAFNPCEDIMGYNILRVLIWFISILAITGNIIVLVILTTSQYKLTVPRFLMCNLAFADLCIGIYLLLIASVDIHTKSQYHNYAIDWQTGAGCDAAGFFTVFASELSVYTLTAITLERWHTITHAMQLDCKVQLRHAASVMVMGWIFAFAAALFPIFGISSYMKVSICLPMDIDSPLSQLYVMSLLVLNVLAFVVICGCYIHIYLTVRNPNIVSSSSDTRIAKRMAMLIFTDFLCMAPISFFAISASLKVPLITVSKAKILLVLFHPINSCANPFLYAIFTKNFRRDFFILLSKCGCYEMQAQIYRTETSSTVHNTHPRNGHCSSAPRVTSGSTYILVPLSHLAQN

With `Cc1cc(C)c(-c2ccc(S(=O)(=O)N(CC(=O)NCc3ccc(CN)cc3)C[C@@H](C)c3ccccc3)cc2)c(C)c1` the EC50 was 220 nM.

In the case of `COc1ccccc1CCN(CC(=O)NCc1ccc(CN)cc1)S(=O)(=O)c1ccc(Cl)cc1`, the EC50 is reported as 1010 nM.

For `C[C@@H](CN(CC(=O)N1CCC(C2CCNCC2)CC1)S(=O)(=O)c1ccc(-c2cccc(F)c2)cc1)c1ccccc1`, the EC50 was 1080 nM.

For `C[C@H](CN(CC(=O)NCC1CCCC(CN)C1)S(=O)(=O)c1ccc(-c2cccc(F)c2)cc1)c1ccccc1` (some centres unmarked), the EC50 was 1930 nM.

`COc1ccccc1CN(CC(=O)N1CCNCC1)S(=O)(=O)c1ccc(-c2cccc(NC(C)=O)c2)cc1` showed an EC50 of no less than 50000 nM.

In the case of `C[C@@H](CN(CC(=O)NCc1ccc(CN)cc1)S(=O)(=O)c1ccc(-c2cccc(N)c2)cc1)c1ccccc1`, the EC50 is reported as 70 nM.

With `C[C@@H](CN(CC(=O)NCc1ccc(CN)cc1)S(=O)(=O)c1ccc(-c2cc(C(F)(F)F)cc(C(F)(F)F)c2)cc1)c1ccccc1` the EC50 was greater than 50000 nM.

Compound `COc1cccc(S(=O)(=O)N(CC(=O)NCc2ccc(CN)cc2)C[C@@H](C)c2ccccc2)c1` has an EC50 of 870 nM.

With `COc1ccccc1CCN(CC(=O)NCc1ccc(CN)cc1)S(=O)(=O)c1ccccc1-c1ccc(Cl)cc1` the EC50 was 12800 nM.

With `COc1cc(CCN(CC(=O)NCc2ccc(CN)cc2)S(=O)(=O)c2ccc(-c3ccccc3Cl)cc2)cc(-c2ccccc2Cl)c1OC` the EC50 was 130 nM.

For `COc1ccccc1-c1ccc(S(=O)(=O)N(CC(=O)NCc2ccc(CN)cc2)C[C@H](C)c2ccccc2)cc1` [421], the EC50 was 550 nM.

`C[C@H](CN(CC(=O)NCc1ccc(CN)cc1)S(=O)(=O)c1ccc(-c2c(F)cccc2F)cc1)c1ccccc1` showed an EC50 of 190 nM.

`COc1ccccc1CN(CC(=O)N1CCNCC1)S(=O)(=O)c1ccc(-c2cccc(Cl)c2)cc1` showed an EC50 of no less than 50000 nM.

Work on `COc1ccccc1CCN(CC(=O)N1CCNCC1)S(=O)(=O)c1ccc(-c2ccc(Cl)cc2)cc1` yielded an EC50 of 13800 nM.

`COc1ccc(OC)c(CCN(CC(=O)NCCCCCCN)S(=O)(=O)c2ccc(-c3ccccc3Cl)cc2)c1` was tested, and the EC50 was 90 nM.

`NCc1ccc(CNC(=O)CN(C2Cc3ccccc3C2)S(=O)(=O)c2ccc(-c3ccccc3Cl)cc2)cc1` gave an EC50 of 4620 nM.

`C[C@@H](CN(CC(=O)NCc1ccc(CN)cc1)S(=O)(=O)c1ccc(-c2cccc([N+](=O)[O-])c2)cc1)c1ccccc1` gave an EC50 of 80 nM.

`COc1ccccc1CCN(CC(=O)N1CCNCC1)S(=O)(=O)c1ccc(-c2ccsc2)cc1` was tested, and the EC50 was 8580 nM.

Compound `COc1ccccc1CCN(CC(=O)NCc1ccc(CN)cc1)S(=O)(=O)c1ccc(-c2cccc(C#N)c2)s1` has an EC50 of 7360 nM.

Work on `COc1ccccc1CN(CC(=O)NCCCCCCN)S(=O)(=O)c1ccc(-c2ccccc2C)cc1` yielded an EC50 of 890 nM.

Compound `NCc1ccc(CNC(=O)CN(C2CC2c2ccccc2)S(=O)(=O)c2ccc(-c3ccccc3Cl)cc2)cc1` (centres unmarked) has an EC50 of 11300 nM.

`C[C@@H](CN(CC(=O)NCc1cccc(CN)c1)S(=O)(=O)c1ccc(-c2ccccc2Cl)cc1)c1ccccc1` gave an EC50 of 310 nM.

In the case of `COc1cccc(S(=O)(=O)N(CC(=O)NCc2ccc(CN)cc2)C[C@H](C)c2ccccc2)c1`, the EC50 is reported as 420 nM.

Work on `COc1ccccc1CCN(CC(=O)NCc1ccc(CN)cc1)S(=O)(=O)c1ccc(F)cc1` yielded an EC50 of 1860 nM.

`C[C@@H](CN(CC(=O)NCc1ccc(CN)cc1)S(=O)(=O)c1ccc(-c2cccc3ccccc23)cc1)c1ccccc1` was tested, and the EC50 was 580 nM.

`CCCc1ccc(S(=O)(=O)N(CC(=O)NCc2ccc(CN)cc2)C[C@@H](C)c2ccccc2)cc1` was tested, and the EC50 was 130 nM.

In the case of `COc1cccc(-c2ccccc2S(=O)(=O)N(CCc2ccccc2OC)CC(=O)NCc2ccc(CN)cc2)c1`, the EC50 is reported as 5500 nM.

`COc1ccccc1CCN(CC(=O)NCc1ccc(CN)cc1)S(=O)(=O)c1cccc(-c2ccccc2)c1` showed an EC50 of 3930 nM.

`C[C@@H](CN(CC(=O)NCc1ccc(CN)cc1)S(=O)(=O)c1ccc(-c2cccc(C#N)c2)cc1)c1ccccc1` showed an EC50 of 210 nM.

With `COc1ccccc1CCN(CC(=O)NCc1ccc(CN)cc1)S(=O)(=O)c1cccc(-c2ccncc2)c1` the EC50 was 32000 nM.

In the case of `COc1ccc(-c2ccc(S(=O)(=O)N(CC(=O)NCc3ccc(CN)cc3)C[C@H](C)c3ccccc3)cc2)cc1OC`, the EC50 is reported as 210 nM.

For `COc1ccccc1CCN(CC(=O)N1CCNCC1)S(=O)(=O)c1ccc(-c2ccccc2Cl)cc1`, the EC50 was 4540 nM.

Work on `COc1ccccc1CCN(CC(=O)NCc1ccc(CN)cc1)S(=O)(=O)c1ccc(I)cc1` yielded an EC50 of 4320 nM.

In the case of `Cc1ccccc1-c1ccc(S(=O)(=O)N(CC(=O)NCc2ccc(CN)cc2)CC2(c3ccc(Cl)cc3)CC2)cc1`, the EC50 is reported as 16900 nM.

In the case of `Cc1ccc(-c2ccc(S(=O)(=O)N(CC(=O)NCc3ccc(CN)cc3)C[C@H](C)c3ccccc3)cc2)cc1Cl`, the EC50 is reported as 210 nM.

Work on `COc1ccccc1CN(CC(=O)N1CCNCC1)S(=O)(=O)c1ccc(-c2ccc(C#N)cc2)cc1` yielded an EC50 of 38200 nM.

`NCc1ccc(CNC(=O)CN(CC2Cc3ccccc32)S(=O)(=O)c2ccc(-c3ccccc3Cl)cc2)cc1` (centres unmarked) showed an EC50 of 4770 nM.

Work on `COc1ccccc1CCN(CC(=O)NCc1ccc(CN)cc1)S(=O)(=O)c1ccc(-c2ccccn2)s1` yielded an EC50 of 24300 nM.

For `COc1ccc(NC(=O)C(C)(C)C)c(-c2ccc(S(=O)(=O)N(CC(=O)NCc3ccc(CN)cc3)C[C@H](C)c3ccccc3)cc2)c1`, the EC50 was 20900 nM.

Compound `NCCCCCCNC(=O)CN(CCc1ccccc1F)S(=O)(=O)c1ccc(-c2ccccc2Cl)cc1` has an EC50 of 410 nM.

`COc1ccccc1C(C)CN(CC(=O)NCc1ccc(CN)cc1)S(=O)(=O)c1ccc(-c2ccccc2Cl)cc1` (centres unmarked) was tested, and the EC50 was 1000 nM.

`NCc1ccc(CNC(=O)CN(CC2(c3ccc(Cl)cc3)CC2)S(=O)(=O)c2ccc(-c3cccc(F)c3)cc2)cc1` was tested, and the EC50 was 1100 nM.

For `NCCCCCCNC(=O)CN(CCc1c(Cl)cccc1Cl)S(=O)(=O)c1ccc(-c2ccccc2Cl)cc1`, the EC50 was 280 nM.

`COc1ccccc1CCN(CC(=O)NCc1ccc(CN)cc1)S(=O)(=O)c1ccccc1[N+](=O)[O-]` was tested, and the EC50 was 3860 nM.

`COc1cccc(CCN(CC(=O)NCc2ccc(CN)cc2)S(=O)(=O)c2ccc(-c3ccccc3Cl)cc2)c1OC` gave an EC50 of 110 nM.

Work on `COc1ccccc1CCN(CC(=O)NCc1ccc(CN)cc1)S(=O)(=O)Cc1ccccc1` yielded an EC50 of 10400 nM.

`CCC(CN(CC(=O)NCc1ccc(CN)cc1)S(=O)(=O)c1ccc(-c2ccccc2Cl)cc1)c1ccccc1` (centres unmarked) showed an EC50 of 120 nM.

With `COc1ccccc1CCN(CC(=O)NCc1ccc(CN)cc1)S(=O)(=O)c1ccccc1-c1ccc(C#N)cc1` the EC50 was 27800 nM.

`COc1cc(CCN(CC(=O)NCCCCCCN)S(=O)(=O)c2ccc(-c3ccccc3Cl)cc2)cc(Br)c1OC` showed an EC50 greater than 50000 nM.

Compound `COc1ccccc1CCN(CC(=O)NCc1ccc(CN)cc1)S(=O)(=O)c1ccccc1F` has an EC50 of 2580 nM.

Work on `COc1ccccc1CCN(CC(=O)NCc1ccc(CN)cc1)S(=O)(=O)c1ccc(-c2cccc(N)c2)s1` yielded an EC50 of 1270 nM.

Compound `C[C@@H](CN(CC(=O)NCc1ccc(CN)cc1)S(=O)(=O)c1ccc(-c2ccccc2[N+](=O)[O-])cc1)c1ccccc1` has an EC50 of 230 nM.

`C[C@H](CN(CC(=O)NCc1ccc(CN)cc1)S(=O)(=O)c1ccc(C(C)(C)C)cc1)c1ccccc1` was tested, and the EC50 was 3000 nM.

`COc1ccccc1CN(CC(=O)N1CCNCC1)S(=O)(=O)c1ccc(-c2ccc(F)cc2)cc1` gave an EC50 of no less than 50000 nM.

Compound `NCc1ccc(CNC(=O)CN(CCc2ccccc2Cl)S(=O)(=O)c2ccc(-c3ccccc3Cl)cc2)cc1` has an EC50 of 220 nM.

Compound `COc1ccccc1CCN(CC(=O)NCc1ccc(CN)cc1)S(=O)(=O)c1ccc(C(F)(F)F)cc1[N+](=O)[O-]` has an EC50 of no less than 50000 nM.

Compound `C[C@@H](CN(CC(=O)NCc1ccc(CN)cc1)S(=O)(=O)c1ccc(-c2cccc(-c3ccccc3)c2)cc1)c1ccccc1` has an EC50 of 3350 nM.

`COc1ccc(-c2ccc(S(=O)(=O)N(CC(=O)N3CCNCC3)Cc3ccccc3OC)cc2)cc1` showed an EC50 of no less than 50000 nM.

`COc1ccccc1CCN(CC(=O)NCc1ccc(CN)cc1)S(=O)(=O)c1ccccc1-c1cccc(C(F)(F)F)c1` was tested, and the EC50 was 6830 nM.

Reference: patent US6583179B2, “Substituted aminoalkylamide derivatives as antagonists of follicle stimulating hormone” (Ortho-McNeil Pharmaceutical, Inc., priority 1999, dated 2003)
